Data from patent publication US10877024B2, “Methods of determining interferon having direct inhibitory effects on tumors and uses thereof” (SUPERLAB FAR EAST LIMITED, priority 2015, dated 2020).

What was measured:
[1] = system: procaspase-3, cleaved caspase-3, procaspase-8, cleaved caspase-8, PARP; test: Apoptosis-related molecular markers by Western Blot; assay type: cell-based, human; details: A549 and SW620 cells, 24 hr or 48 hr; interferons 10 mcg/ml
[2] = system: Lung cancer cells, A549; test: Colony and pseudopod formation in three dimensional Matrigel culture; assay type: cell-based, human; details: 10 mcg/ml, after 8 days
[3] = system: SW620 tumor cells; test: Cell viability, MTT assay, 1-6 days; assay type: cell-based, human; details: 10 μg/ml
[4] = system: human lung cancer SPC-A4 xenografts; details: 0.15 mg/mouse i.t. every other day
[5] = system: Human Colon Cancer HT-29 Xenografts; test: rSIFN-co on human colon cancer HT-29 xenografts in nude mice; assay type: in vivo; details: 0.15 mg/mouse i.t. every other day
[6] = system: beta-catenin; test: Beta-catenin protein level by Western Blot; assay type: cell-based, human; details: 10 mcg/ml, 24, 48, 72 hr

How did the “level of cleaved caspase-3 and cleaved caspase-8” value [1] turn out when “IFN alpha-2b: Comparator interferon alpha-2b, from Huiyang Life Science and Technology Corp. or Shanghai Hua-xin High Biotechnology [reference compound]” was run?
Its value is “neither of the interferons, IFN alpha-2b nor rSIFN-co, caused any reduction in the level of procaspase-3 or procaspase-8 or PARP, or induced any enhancement”.

And the “level of procaspase-3, procaspase-8 and PARP” value [1]?
The value was “neither of the interferons, IFN alpha-2b nor rSIFN-co, caused any reduction”.

And the “invasive feet (pseudopod) formation” value [2]?
Its value is “peduopod formation was obvious”.

And the “cell viability over time (MTT)” value [3]?
The value was “little time-dependent effect, if any”.

What about the “TV(mm^3, mean ± SD) (D 0)” value ([4]; day 0) of the same substance?
Its value is 191 ± 44 mm^3.

What about the “TV(mm^3, mean ± SD) (D 21)” value ([4]; day 21) of the same substance?
The value was 4908 ± 2433 mm^3.

And the “TV(mm^3, mean ± SD) (D 0)” value ([5]; day 0)?
Its value is 128 ± 44 mm^3.

What about the “TV(mm^3, mean ± SD) (D 28)” value ([5]; day 28) of the same substance?
The value was 831 ± 420 mm^3.

And the beta-catenin protein level ([6]; A549 cells)?
Its beta-catenin protein level is “did not cause any apparent decrease in beta-catenin level”.

And the beta-catenin protein level ([6]; SW480 cells)?
The beta-catenin protein level was “did not cause any apparent decrease in beta-catenin level”.
